Source: patent publication EP4831169A1, “NOVEL COMPOUND USED AS CBP/P300 INHIBITOR, AND PHARMACEUTICAL COMPOSITION FOR PREVENTING OR TREATING CANCER, INFLAMMATORY DISORDERS, OR AUTOIMMUNE DISEASES COMPRISING SAME AS ACTIVE INGREDIENT” (dated 2026)

Protein sequences, listed by entry. Tags and fused reporters are not part of them. Residues count along the entry.
UniProt Q92793, 1085-1192 limits assumed: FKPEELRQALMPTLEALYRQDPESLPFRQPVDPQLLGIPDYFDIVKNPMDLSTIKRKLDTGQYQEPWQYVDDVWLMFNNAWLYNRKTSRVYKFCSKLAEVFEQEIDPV

Assays:
CBP BRD protein = CBP BRD protein (Homo sapiens, UniProt Q92793); experiment: CBP bromodomain TR-FRET inhibitory activity assay; conditions: read-out: CBP BRD IC50, Table 3
BRD4 (BD1) protein = BRD4 (BD1) protein (Homo sapiens, UniProt O60885); experiment: BRD4 bromodomain TR-FRET inhibitory activity assay; conditions: read-out: BRD4 (BD1) IC50, Table 4

Structure (SMILES)	IC50 (CBP BRD protein)	IC50 (BRD4 (BD1) protein)
CN1CCC(c2cc(-n3c(-c4cncn4C)nc4cc(-c5cnn(C)c5)c(F)cc43)cc3c2n(C)c(=O)n3C)CC1	< 500 nM	> 5000 nM
Cc1ccc2c(-c3nc4cc(Br)ncc4n3-c3ccc4c(c3)n(C)c(=O)n4C)c[nH]c2c1	> 5000 nM	> 5000 nM
Cc1ncc(-c2cc3nc(C(C)(C)C)n(-c4cc(N5CCC(=O)CC5)c5c(c4)n(C)c(=O)n5C)c3cc2Cl)s1	< 500 nM	> 5000 nM
Cc1ncc(-c2cc3nc(C(C)(C)C)n(-c4cc(N5CCC(O)CC5)c5c(c4)n(C)c(=O)n5C)c3cc2Cl)s1	< 500 nM	> 5000 nM
Cn1cc(-c2cc3nc(C(C)(C)C)n(-c4cc(N5CC(C)(NC(=O)OC(C)(C)C)C5)c5c(c4)n(C)c(=O)n5C)c3cc2C(F)F)cn1	< 500 nM	> 5000 nM
Cc1ncc(-c2cc3nc(-c4cncn4C)n(-c4cc(N5CCOCC5)c5c(c4)n(C)c(=O)n5C)c3cc2F)s1	< 500 nM	> 5000 nM
Cc1ncc(-c2cc3nc(C(C)(C)C)n(-c4cc(N5CC(C)(O)C5)c5c(c4)n(C)c(=O)n5C)c3cc2C(F)(F)F)s1	< 500 nM	> 5000 nM
Cn1cc(-c2cc3nc(C(C)(C)C)n(-c4cc(Oc5cc(Cl)ncn5)c5c(c4)n(C)c(=O)n5C)c3cc2C(F)F)cn1	< 500 nM	> 5000 nM
CC(=O)Nc1ccc(-c2cc3nc(-c4cncn4C)n(-c4cc(C5=CCN(C(=O)OC(C)(C)C)CC5)c5c(c4)n(C)c(=O)n5C)c3cc2F)cc1	500 to 5000 nM	> 5000 nM
CN(C)c1ccc(-c2cc3nc(-c4cncn4C)n(-c4cc(C5CCOCC5)c5c(c4)n(C)c(=O)n5C)c3cc2F)cc1	< 500 nM	> 5000 nM
CC(C)Cc1cc(-n2c(-c3cncn3C)nc3cc(-c4cnn(C)c4)c(F)cc32)cc2c1n(C)c(=O)n2C	< 500 nM	> 5000 nM
Cn1cc(-c2cc3nc(C(C)(C)C)n(-c4cc(N5CC(F)(F)C5)c5c(c4)n(C)c(=O)n5C)c3cc2C(F)F)cn1	< 500 nM	> 5000 nM
Cn1cc(-c2cc3nc(-c4cncn4C)n(-c4cc(N5CCCC5)c5c(c4)n(C)c(=O)n5C)c3cc2F)cn1	< 500 nM	500 to 5000 nM
COc1cc(-c2cc3nc(-c4cncn4C)n(-c4cc(C5CCOCC5)c5c(c4)n(C)c(=O)n5C)c3cc2F)ccc1Cl	500 to 5000 nM	> 5000 nM
Cc1ccc2c(-c3nc4cc(-c5cnn(C)c5)c(C=O)cc4n3-c3ccc4c(c3)n(C)c(=O)n4C)c[nH]c2c1	< 500 nM	500 to 5000 nM
CN(C)Cc1cc2c(cc1-c1cnn(C)c1)nc(C(C)(C)C)n2-c1cc(N2CCOCC2)c2c(c1)n(C)c(=O)n2C	> 5000 nM	> 5000 nM

Structure (SMILES)	IC50 (CBP BRD protein)	IC50 (BRD4 (BD1) protein)
CC(C)N(C)c1cc(-n2c(-c3cncn3C)nc3cc(-c4cnn(C)c4)c(F)cc32)cc2c1n(C)c(=O)n2C	< 500 nM	500 to 5000 nM
CNC(=O)c1ccc(-c2ccc3c(c2)nc(-c2cncn2C)n3-c2cc(C3CCOCC3)c3c(c2)n(C)c(=O)n3C)cc1F	< 500 nM	> 5000 nM
Cc1noc(-c2cc3nc(C(C)(C)C)n(-c4cc(NC(C)C)c5c(c4)n(C)c(=O)n5C)c3cc2F)n1	< 500 nM	> 5000 nM
Cn1cc(-c2cc3nc(-c4cncn4C)n(-c4cc(N5CCC(=O)CC5)c5c(c4)n(C)c(=O)n5C)c3cc2C(F)F)cn1	< 500 nM	500 to 5000 nM
Cn1cc(-c2cc3nc(-c4cncn4C)n(-c4cc(C5CC5)c5c(c4)n(C)c(=O)n5C)c3cc2F)cn1	< 500 nM	> 5000 nM
Cn1cc(-c2cc3nc(-c4cncn4C)n(-c4cc(Cl)c5c(c4)n(C)c(=O)n5C)c3cc2F)cn1	< 500 nM	> 5000 nM
COc1cc(-c2cc3nc(C(C)(C)C)n(-c4cc(N5CC(C)(O)C5)c5c(c4)n(C)c(=O)n5C)c3cc2C(F)F)ccn1	< 500 nM	> 5000 nM
CC(C)C(=O)Nc1ccc(-c2cc3nc(-c4cncn4C)n(-c4ccc5c(c4)n(C)c(=O)n5C)c3cc2F)cc1	< 500 nM	> 5000 nM
Cn1cc(-c2cc3nc(-c4cncn4C)n(-c4cc(N5CCSCC5)c5c(c4)n(C)c(=O)n5C)c3cc2C(F)F)cn1	< 500 nM	> 5000 nM
CC(C)c1cc(-n2c(-c3cncn3C)nc3cc(-c4cnn(C)c4)c(C(F)(F)F)cc32)cc2c1n(C)c(=O)n2C	< 500 nM	> 5000 nM
Cn1cc(-c2cc3nc(-c4cncn4C)n(-c4cc(N5CC6C[C@H]5CO6)c5c(c4)n(C)c(=O)n5C)c3cc2C(F)F)cn1	< 500 nM	< 500 nM
CCn1cc(-c2cc3nc(-c4cncn4C)n(-c4cc(NC(C)C)c5c(c4)n(C)c(=O)n5C)c3cc2F)cn1	< 500 nM	500 to 5000 nM
Cn1cc(-c2cc3nc(C(C)(C)C)n(-c4cc(N5CCC5)c5c(c4)n(C)c(=O)n5C)c3cc2C(F)F)cn1	< 500 nM	> 5000 nM
Cn1cc(-c2cc3nc(C(C)(C)C)n(-c4cc(N5CC(F)(F)C5)c5c(c4)n(C)c(=O)n5C)c3cc2F)cn1	< 500 nM	> 5000 nM
CN1CC=C(c2cc(-n3c(-c4cncn4C)nc4cc(-c5cnn(C)c5)c(F)cc43)cc3c2n(C)c(=O)n3C)CC1	< 500 nM	> 5000 nM
